Source: PubChem (Broad Institute)
E-selectin induc – E-selectin induction in HUVECs, primary screen, imaging, HUVEC, immunofluorescence imaging, single point. normalized: neutral wells 0, TNF-alpha wells 100. activation, % at 7.58 µM. 260,000 compounds, 0.37% hits. P16581;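 active = mean E-selectin-positive cell signal at least 10% of the positive control, reached in at least 60% of replicates, without over 20% cell loss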
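Material: HUVEC primary endothelial cells; Amount: 3,000 cells per well; Dosing: single concentration; Medium: EGM-2 growth medium on 0.1% gelatin-coated wells; Read-out basis: percent E-selectin-positive cells; Signal: immunofluorescence imaging; Control set: TNF-alpha, DMSO.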
AF4-AF9 inh – inhibitors of AF4 peptide binding to AF9, primary screen, biochemical, AlphaScreen, biotin-AF4 peptide, FLAG-AF9, single point. inhibition, % at 10 µM. 350,000 compounds, 0.47% hits. Protein AF-9 (Homo sapiens), P42568;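 active = every replicate reaching a set inhibition limit, whatever the replicate mean, cut at about 25% in these data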
ERAP1 HTS inh – human ERAP1 aminopeptidase inhibitors, primary screen, biochemical, single point, plate reader; 340,000 compounds, 0.15% hits; inhibition, % at 10.7 µM; AID 652197, 2013; Endoplasmic reticulum aminopeptidase 1 (Homo sapiens), Q9NZ08; recombinant ERAP1, Leu-AMC fluorescence, 60 min;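 active = mean replicate inhibition of at least 30%, or all replicates individually reaching that 30% level; inactive = mean below 30% and not every replicate reaching it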
S100A4 inh HTS – inhibitors of S100A4-myosin IIA peptide binding, primary screen, biochemical, fluorescence polarization, TAMRA-MyoIIA peptide | inhibition, % at 10.7 µM | Protein S100-A4 (Homo sapiens), P26447 | 360,000 compounds, 0.14% hits | AID 652163, 2013;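 active = mean inhibition of at least 70% across replicates, with every replicate also reaching that level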
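Material: S100A4 monomer protein / Buffer or medium: 50 mM HEPES pH 7.2, 10 mM CaCl2, 100 mM KCl / Times: 5 min incubation before reading / Benchmarks: neutral control DMSO, positive control TFP / Reagent: labelled myosin peptide probe, 5 nM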
ARNT TACC3 PPI – disruptors of ARNT/TACC3 protein interaction, primary screen, biochemical, AlphaScreen, single concentration. AlphaScreen His-ARNT PAS-B/GST-TACC3 binding, luminescence; TACC3 fragment carries E629A point mutation. inhibition, % at 9.99 µM. 390,000 compounds, 0.66% hits. AID 623870, 2012;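 active = mean inhibition of replicates at least 50% and at least half of replicates each reaching 50%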
Yeast UUG start – modulators of start codon recognition fidelity in yeast; S. cerevisiae UUG-firefly luciferase reporter, luminescence/redox ratio; activity score, % at 18.7 µM; hit rate 0.13% among 350,000; AID 602363;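 active = replicate mean at a twofold rise or more, about +100% in these data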;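 note: firefly luciferase made from a UUG start codon reports start codon fidelity; reporter light over untreated wells divided by growth signal over untreated wells; some hits fall short of that in this replicate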
A number is an active result; . = inactive; / = not tested or not shown. Compounds with a hit are over-represented: about 1.3% of the library has one in this group of screens.

The chains behind the UniProt entries cited, without tags or fusion partners.
Protein AF-9 (Homo sapiens), P42568, UniProt P42568, whole entry, looked up: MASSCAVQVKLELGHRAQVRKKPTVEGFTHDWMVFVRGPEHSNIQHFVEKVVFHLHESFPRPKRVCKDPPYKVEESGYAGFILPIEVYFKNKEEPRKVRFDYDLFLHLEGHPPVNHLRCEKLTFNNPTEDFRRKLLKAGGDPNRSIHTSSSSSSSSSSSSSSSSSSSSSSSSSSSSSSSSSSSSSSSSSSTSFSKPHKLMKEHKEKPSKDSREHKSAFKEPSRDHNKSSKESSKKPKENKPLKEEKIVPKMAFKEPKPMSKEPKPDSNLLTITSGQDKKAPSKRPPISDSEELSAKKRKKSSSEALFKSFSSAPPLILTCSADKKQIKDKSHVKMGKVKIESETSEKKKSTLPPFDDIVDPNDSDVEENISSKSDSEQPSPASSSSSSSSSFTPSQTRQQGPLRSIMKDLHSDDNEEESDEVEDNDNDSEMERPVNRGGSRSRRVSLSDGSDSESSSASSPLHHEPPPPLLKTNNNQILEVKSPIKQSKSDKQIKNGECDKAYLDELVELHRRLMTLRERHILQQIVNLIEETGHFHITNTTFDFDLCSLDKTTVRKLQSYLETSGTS

SMILES	E-selectin induc	AF4-AF9 inh	ERAP1 HTS inh	S100A4 inh HTS	ARNT TACC3 PPI	Yeast UUG start
COc1ccc(CN2CC3(CN(C(=O)c4ccccc4)C3)c3c([nH]c4cc(OC)ccc34)[C@H]2CO)cc1	.	.	.	73	/	/
CCS(=O)(=O)Nc1ccc2c(c1)C(=O)N(C)C[C@H](OC)[C@@H](C)CN(C(=O)NC(C)C)[C@@H](C)CO2	.	.	.	.	.	.
C[C@@H]1CCCCO[C@@H](CN(C)Cc2ccc(C(F)(F)F)cc2)[C@H](C)CN([C@@H](C)CO)C(=O)c2cc(NS(C)(=O)=O)ccc2O1	.	/	/	/	.	.
CN1C(=O)c2oc3ccccc3c(=O)c2C1c1ccncc1 (stereo not drawn)	/	/	/	/	93	/
CCC(=O)Nc1ccc2c(c1)OC[C@@H](C)N(C(=O)CN(C)C)C[C@@H](C)[C@@H](OC)CN(C)C2=O	.	.	.	.	.	.
CCN(CC(=O)NCc1ccccn1)S(=O)(=O)c1cc(Cl)ccc1Cl	.	.	.	.	.	/
O=C(CN(c1cccc(Cl)c1)S(=O)(=O)c1ccc(Cl)cc1)NCc1ccccn1	.	.	.	.	47	.
COc1ccc(N2C(=O)c3ccccc3C(C)(C)C2=O)cc1	45	.	.	.	.	.
CC1(C)OC2OC(C(=O)N/N=C/c3cc(Br)ccc3O)C3OC(C)(C)OC3C2O1 (stereo not drawn)	.	.	.	.	60	.
C[C@H](CO)N1C[C@H](C)[C@H](CN(C)S(=O)(=O)c2ccc(C#N)cc2)Oc2ncc(/C=C/c3ccccc3)cc2C1=O	.	.	.	.	.	.
C[C@@H]1CN([C@H](C)CO)C(=O)c2cc(N(C)C)ccc2O[C@@H](C)CCCCO[C@@H]1CN(C)C(=O)CCC(F)(F)F	.	.	.	.	.	.
CN(C)c1ccc(CN(CC2CCCO2)C(=O)c2cc3ccccc3o2)cc1 (stereo not drawn)	.	26	.	.	.	.
Cc1c(C(=O)N(Cc2ccc(N(C)C)cc2)CC2CCCO2)oc2ccccc12 (stereo not drawn)	/	.	.	.	.	.
C[C@H]1CN([C@@H](C)CO)C(=O)CCCn2cc(nn2)CO[C@@H]1CN(C)Cc1ccc(C(=O)Nc2ccccc2N)cc1	.	.	.	.	.	.
CC(=O)NC(CC(=O)NCCOc1ccccc1F)c1ccccc1 (stereo not drawn)	/	.	36	.	.	.
CC(=O)NC(CC(=O)NNC(=O)C(C)Oc1ccccc1F)c1ccccc1 (stereo not drawn)	/	.	.	.	/	/
CC(=NNC(=O)c1ccncc1)c1ccccc1O	.	.	.	.	61	.
CC(=NNC(=O)c1ccncc1)c1ccc(O)cc1O	.	.	.	.	85	.
C/C(=N\NC(=O)c1ccc(N2CCCC2=O)cc1)c1ccc(O)cc1O	.	.	.	.	.	.
CC(=NNC(=O)c1ccncc1)c1ccc2ccccc2c1O	.	.	.	.	.	/
COc1ccc(/C(C)=N/NC(=O)c2ccncc2)cc1	/	.	.	.	47	.
COc1ccc(C(=O)NCc2nnc(SCC(=O)NO)n2Cc2ccccc2)cc1	.	26	/	.	.	/
C[C@@H]1CN([C@H](C)CO)C(=O)Cc2cc(NS(=O)(=O)c3cccs3)ccc2O[C@@H]1CN(C)C(=O)Nc1ccccc1	.	.	.	.	.	.
C[C@@H]1CN([C@@H](C)CO)C(=O)c2cc(NS(=O)(=O)c3cccs3)ccc2O[C@@H]1CN(C)C(=O)Nc1ccc(F)cc1	.	47	.	.	.	.
CC(C)NC(=O)N(C)C[C@@H]1Oc2ccc(NS(=O)(=O)c3cccs3)cc2CC(=O)N([C@H](C)CO)C[C@@H]1C	26	.	.	.	.	.
SMILES	E-selectin induc	AF4-AF9 inh	ERAP1 HTS inh	S100A4 inh HTS	ARNT TACC3 PPI	Yeast UUG start
C[C@H]1CN([C@@H](C)CO)C(=O)Cc2cc(NS(=O)(=O)c3cccs3)ccc2O[C@H]1CN(C)C(=O)Nc1ccc(F)cc1	.	.	.	.	.	.
C[C@@H]1CN([C@@H](C)CO)C(=O)Cc2cc(NS(=O)(=O)c3cccs3)ccc2O[C@H]1CN(C)C(=O)Nc1ccc(F)cc1	30	.	.	.	.	.
C[C@@H]1CN([C@@H](C)CO)C(=O)c2cc(NS(=O)(=O)c3cccs3)ccc2O[C@@H]1CN(C)S(C)(=O)=O	154	.	.	.	.	.
C[C@@H]1CN([C@@H](C)CO)C(=O)c2cc(NS(=O)(=O)c3cccs3)ccc2O[C@H]1CN(C)S(C)(=O)=O	.	.	.	.	.	.
COc1cccc(NC(=O)N2CC(=O)N3[C@H](CO)[C@H](c4ccc(C5=CCCCC5)cc4)[C@@H]3C2)c1	.	.	/	/	/	/
COc1ccc(-c2nnc3c4ccccc4c(C)nn23)cc1S(=O)(=O)N1CCN(CCO)CC1	/	/	/	/	active	.
CC(=O)N[C@H]1CC[C@@H](CCNC(=O)C2CCCCC2)O[C@@H]1CO	.	.	.	.	/	/
C[C@@H]1CN([C@@H](C)CO)C(=O)c2cc(C#Cc3cccc(F)c3)cnc2O[C@@H]1CN(C)C(=O)C1CCC1	.	.	.	.	.	.
NC(=O)CC(NC(=O)Cc1cccc2ccccc12)c1ccc(NC2CCN(Cc3ccccc3)CC2)c([N+](=O)[O-])c1 (stereo not drawn)	.	54	.	.	.	.
O=C(C[C@H]1CC[C@@H](NC(=O)c2cccc(F)c2)[C@H](CO)O1)Nc1nccs1	.	.	.	.	.	.
COC(=O)c1ccc(N2C(=O)CC(SCC(=O)Nc3ccc(OC)cc3)C2=O)cc1 (stereo not drawn)	58	.	/	.	.	/
CCOC(=O)c1ccc(N2C(=O)CC(SCC(=O)Nc3ccc(S(N)(=O)=O)cc3)C2=O)cc1 (stereo not drawn)	/	.	.	.	/	/
Oc1ccc(NC(=S)N=Nc2c(O)[nH]c3ccccc23)cc1	/	.	.	.	67	.
Cc1ccc(NC(=S)N=Nc2c(O)[nH]c3ccccc23)cc1	/	.	.	.	.	/
C/C(=N\NC(=O)CC#N)c1cc2ccc(O)cc2oc1=O	.	.	80	.	.	.
O=c1c(C=NCCCn2ccnc2)c(-c2ccccc2)[nH]n1-c1nc2ccccc2s1	/	/	/	/	54	/
CCOc1ccccc1NC(=O)C(CC)Sc1nc2ccncc2[nH]1 (stereo not drawn)	/	.	.	.	.	.
